Compound activity from PubChem BioAssay.
NALP1 inh: inhibitors of NALP1 inflammasome in yeast | S. cerevisiae NALP1/ASC/caspase-1 growth, X-gal OD620, 72 h | inhibition, % at 10 µM | hit rate 0.61% among 280,000; in the data active = inhibition mostly above about 24%, no sharp cut-off; inactive = mostly below about 32%
HDAC3 inhib: inhibitors of human histone deacetylase 3 | recombinant HDAC3, fluorogenic peptide/trypsin coupled, fluorescence | inhibition, % at 8.3 µM | hit rate 0.15% among 320,000 | AID 2718; in the data active = inhibition above about 26%, passing the limit was not always enough; inconclusive = no clear call, values can overlap the other calls
MC4R barr agon: agonists of human melanocortin 4 receptor (MC4R) beta-arrestin; U2OS MC4R beta-arrestin complementation, luminescence; percent of melanotan II response, DMSO zero; activation, % at 8.9 µM; hit rate 0.98% among 360,000; P32245;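 active = activation above a per-plate cutoff, the mean activation of sample wells on that plate plus 3 SD, cut at about 8% in these data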
MC4R antagonist: antagonists of human melanocortin 4 receptor (MC4R) | P32245 | MC4R-expressing cells, MTII-stimulated cAMP, LANCE TR-FRET | inhibition, % at 6.5 µM | hit rate 0.48% among 360,000 | AID 540295;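 active = inhibition above its plate's cutoff, the mean of tested wells on that plate plus 3 SD, cut at about 29% in these data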;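 also: 0% = Melanotan II alone and 100% = Melanotan II plus saturating MCL0020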
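Material: human MC4R-expressing U2OS cells. Probe or stimulus: Melanotan II challenge. Dosing: 6.5 µM single dose. Times: 30-min compound, 1-h challenge, 1-h detection, room temperature. Technique: TR-FRET with Eu-cAMP and labeled anti-cAMP, 671 nm. Replication: singlicate.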
UUG fidelity: alters start codon recognition fidelity in yeast. S. cerevisiae UUG-firefly luciferase reporter, luminescence/redox ratio. 350,000 tested, 0.13% active. activity score, % at 18.7 µM. AID 602363;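 active means replicate mean at a twofold rise or more, about +100% in these data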;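 further: firefly luciferase made from a UUG start codon reports start codon fidelity; reporter light over untreated wells divided by growth signal over untreated wells; some hits fall short of that in this replicate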
ALR H2O2 inh: human ALR oxidase inhibition via reduced H2O2. 290,000 tested, 3.8% active. AID 485317. purified ALR, DTT oxidation, H2O2 HRP-luminol luminescence. inhibition, % (test concentration not listed). P55789;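 active = mean and each replicate at 75% or more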;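 also: stock transfer was 7.5 nL into about 7.5 µL; 0% = neutral wells and 100% = wells with inactivated enzyme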
* marks the source's active call; other numbers are inactive results; u = inconclusive; x = no result. Sampled rows, rich in hits. Any-hit rate of the full collection: about 4.2%.

| item | NALP1 inh | HDAC3 inhib | MC4R barr agon | MC4R antagonist | UUG fidelity | ALR H2O2 inh | structure |
| --- | --- | --- | --- | --- | --- | --- | --- |
| 1 | 20.2 | 1.6 | -1.9 | 8.6 | 6.6 | 98.2* | COc1cccc(C2c3[nH]c4ccccc4c3C[C@H]3C(=O)N(c4ccccc4C(=O)N4CCC[C@H]4C(=O)O)C(=O)N23)c1 (stereo not given in full) |
| 2 | x | -0.6 | -2.1 | 10.3 | -9.0 | x | COc1ccc(C2c3[nH]c4ccccc4c3C[C@H]3C(=O)N(c4ccccc4C(=O)N4CCC[C@@H]4C(=O)O)C(=O)N23)cc1 (stereo not given in full) |
| 3 | 32.3 | 0.4 | -0.3 | 18.0 | -22.2 | 97.4* | O=C(O)[C@@H]1CCCN1C(=O)c1ccccc1N1C(=O)[C@@H]2Cc3c([nH]c4ccccc34)C(c3cccc(Cl)c3)N2C1=O (stereo not given in full) |
| 4 | 11.2 | -4.7 | -0.8 | 0.6 | -0.6 | 98.0* | COc1ccc(C2c3[nH]c4ccccc4c3C[C@H]3C(=O)N(c4ccccc4C(=O)N4CCC[C@H]4C(=O)O)C(=O)N23)cc1 (stereo not given in full) |
| 5 | x | x | x | x | -25.7 | x | CN1c2ccc(-c3ccccc3)cc2[C@H]2[C@H](CCN2C(=O)Cc2ccccc2)[C@@H]1CO |
| 6 | x | x | x | x | 6.0 | x | CN1C(=O)c2cc(NS(=O)(=O)c3ccc(F)cc3)ccc2OC[C@@H]2O[C@@H](CC(=O)NCC(F)(F)F)CC[C@@H]21 |
| 7 | x | x | x | x | 0.0 | x | O=C(C[C@@H]1CC[C@H]2[C@@H](COC[C@@H](O)CN2S(=O)(=O)c2ccc(Cl)cc2)O1)NCCN1CCCC1 |
| 8 | x | x | -3.1 | 5.0 | -9.8 | x | Nc1nc(=S)c2[nH]c(=S)[nH]c2[nH]1 |
| 9 | 7.0 | 36.5* | -2.8 | 15.0 | -16.2 | 98.5* | CSc1nc(=S)c2[nH]c(=S)[nH]c2[nH]1 |
| 10 | 15.1 | -0.6 | -1.6 | -7.2 | x | 99.3* | CCCCCCn1c2c(c(=N)c3c1CCC3)CCC2 |
| 11 | 27.1* | -0.6 | 8.2 | -7.7 | -3.9 | -24.4 | CCCCCCCCCn1c2c(c(=N)c3c1CCC3)CCC2 |
| 12 | -3.1 | x | -2.0 | 6.9 | x | x | CCCCCCCn1c2c(c(=N)c3c1CCC3)CCCC2 |
| 13 | x | x | x | x | -4.2 | x | Cc1ccc(S(=O)(=O)N[C@@H]2CC[C@@H](CCNS(=O)(=O)Cc3ccccc3)O[C@H]2CO)cc1 |
| 14 | x | x | x | x | -10.8 | x | Cc1ccc(-c2ccc3c(c2)O[C@H](CN(C)Cc2ccccn2)[C@@H](C)CN([C@@H](C)CO)S3(=O)=O)cc1 |
| 15 | 6.0 | -2.2 | 6.3 | -1.1 | -9.3 | 29.5 | Cc1cc(N/N=C/c2ccc(N(C)C)cc2)nc(NCc2ccccc2)n1 |

| item | NALP1 inh | HDAC3 inhib | MC4R barr agon | MC4R antagonist | UUG fidelity | ALR H2O2 inh | structure |
| --- | --- | --- | --- | --- | --- | --- | --- |
| 16 | -0.8 | -8.8 | -1.3 | -1.5 | x | 7.5 | CCNc1nc(NCC)nc(N/N=C/c2cc(OC)c(OC)c(OC)c2)n1 |
| 17 | -8.5 | 10.9 | -1.6 | 0.0 | x | 98.7* | CCNc1nc(NCC)nc(N/N=C/c2ccc(O)c(O)c2)n1 |
| 18 | -6.6 | -4.0 | -1.1 | 10.9 | x | 98.9* | CCNc1nc(NCC)nc(N/N=C/c2ccc(N(C)C)cc2)n1 |
| 19 | x | x | x | x | -2.5 | x | COc1ccc(S(=O)(=O)N(C)C[C@H]2OCCCC[C@H](C)Oc3ccc(NC(=O)NC4CCCCC4)cc3C(=O)N([C@H](C)CO)C[C@H]2C)cc1 |
| 20 | x | x | x | x | 9.3 | x | Cc1noc(C)c1NC(=O)N(C)C[C@@H]1Oc2ccc(NC(=O)C3CCCCC3)cc2CC(=O)N([C@@H](C)CO)C[C@H]1C |
| 21 | 5.8 | 8.5 | -3.1 | -1.8 | -23.3 | 94.7* | c1cn2cc(-c3ccc4c(c3)OCO4)nc2s1 |
| 22 | -3.4 | -6.0 | 0.5 | 7.0 | -31.9 | 67.3 | CC(=O)Nc1ccc(-c2cn3ccsc3n2)cc1 |
| 23 | 23.5 | 3.0 | 2.4 | 9.5 | x | 98.3* | CCSC1=NSC2=NC(=O)/C(=C\c3coc4ccccc4c3=O)C(=N)N12 |
| 24 | 7.8 | x | 2.4 | 21.9 | -32.9 | x | CC(C)CC1=NN2C(=N)/C(=C\c3coc4ccccc4c3=O)C(=O)N=C2S1 |
| 25 | 25.4 | 10.3 | -1.9 | 9.0 | -18.8 | 86.2* | Nc1nc(C(=O)N2CCOCC2)nn1C(=O)c1ccc(Cl)cc1 |
| 26 | -11.7 | u | -2.4 | 5.8 | x | -6.7 | O=C(c1ccc(Cl)cc1)c1ccccc1C(=O)N1CCOCC1 |
| 27 | 9.1 | x | -3.0 | -2.8 | -16.1 | 99.0* | C/C(=N\Nc1ccc([N+](=O)[O-])cc1)c1cccc(N)c1 |
| 28 | -1.2 | 5.6 | -3.0 | -8.3 | x | 99.4* | C/C(=N\Nc1ccc([N+](=O)[O-])cc1)c1ccc(O)cc1 |
| 29 | -6.0 | 9.6 | -1.2 | -2.8 | -15.2 | -2.8 | C/C(=N/Nc1ccccc1[N+](=O)[O-])c1ccc([N+](=O)[O-])cc1 |
| 30 | x | x | x | x | -9.7 | x | C/C=C/c1cnc2c(c1)C(=O)N([C@H](C)CO)C[C@H](C)[C@H](CN(C)C(=O)C1CC1)O2 |

| item | NALP1 inh | HDAC3 inhib | MC4R barr agon | MC4R antagonist | UUG fidelity | ALR H2O2 inh | structure |
| --- | --- | --- | --- | --- | --- | --- | --- |
| 31 | -8.4 | -4.0 | 0.4 | -4.5 | x | 98.1* | O=c1c2ccccc2c(/C=N/NS(=O)(=O)c2ccccc2)c(O)n1-c1ccccn1 |
| 32 | 36.1 | -1.6 | -0.2 | 16.1 | -35.2 | 96.7* | NNC(=O)c1cccc(COc2ccc(Br)cc2)c1 |
| 33 | 44.4* | x | 3.5 | 17.4 | -5.9 | x | Cc1c(Br)cccc1NC(=O)c1sccc1-n1cccc1 |
| 34 | -2.3 | 4.0 | -1.7 | 7.7 | -18.2 | 99.6* | O=C(NC1CC1)c1sccc1-n1cccc1 |
| 35 | 32.3 | 4.3 | -0.4 | -1.5 | x | -8.0 | O=C(NNC(=O)c1sccc1-n1cccc1)c1ccc(Cl)cc1 |
| 36 | x | x | x | x | -7.9 | x | COCC#Cc1cnc2c(c1)C(=O)N([C@@H](C)CO)C[C@H](C)[C@@H](CN(C)C(=O)c1cccnc1)O2 |
| 37 | 0.3 | u | 0.9 | 14.1 | 0.5 | -4.2 | CN1C[C@@H]2C[C@@H](C3=Cc4cc(Cl)ccc4OC3)N3CCC[C@@]23C1=O |
| 38 | 25.8* | 0.5 | 5.2 | 17.1 | x | 17.7 | COc1ccccc1CN1C[C@@H]2C[C@@H](C3=Cc4cc(Cl)ccc4OC3)N3CCC[C@@]23C1=O |
| 39 | 6.4 | -0.5 | -1.1 | 8.2 | x | 97.8* | CCOC(=S)SCc1cn2ccccc2n1 |
| 40 | 1.5 | 5.3 | 1.0 | -5.5 | -28.1 | 28.8 | Cc1ccn2cc(CSc3ccccc3N)nc2c1 |
| 41 | 19.9 | 5.9 | 2.0 | 0.5 | -26.2 | 98.7* | CCOC(=S)SCc1cn2ccc(C)cc2n1 |
| 42 | x | x | x | x | 6.0 | x | C[C@H](NC(=O)C[C@H]1C[C@@H]2c3cc(NC(=O)CN(C)C)ccc3O[C@@H]2[C@@H](CO)O1)c1ccccc1 |
| 43 | 16.1 | 1.2 | -2.2 | 16.7 | -9.6 | 97.7* | C/C(=N\NC(=O)c1ccccc1O)C1C(=O)c2ccccc2C1=O |
| 44 | 10.2 | 5.2 | 0.8 | 10.8 | -5.4 | 97.8* | O=C(NCC1CC1)c1ccc(Nc2nc3ccc(Br)cc3[nH]2)cc1 |
| 45 | 34.2 | u | 4.8 | 12.4 | -2.4 | 28.4 | O=C(NCc1ccco1)c1cccc(Nc2nc3ccc(Br)cc3[nH]2)c1 |
| 46 | x | x | x | x | 10.6 | x | CN1C(=O)c2cc(NC(=O)c3ccc(F)cc3)ccc2OC[C@@H]2O[C@H](CC(=O)O)CC[C@H]21 |
| 47 | 25.1 | 4.1 | 1.9 | 0.9 | x | x | Cc1cccc(C)c1NC(=O)CCCSc1nnc(-c2ccc(Cl)cc2)n1-c1ccccc1 |
| 48 | 29.3 | 1.9 | 0.0 | 15.0 | -19.4 | 95.8* | Cc1cccc(C)c1NC(=O)CCCSc1nnc(-c2ccc(F)cc2)n1-c1ccccc1 |

4 of the compounds above, field by field.
#6 CN1C(=O)c2cc(NS(=O)(=O)c3ccc(F)cc3)ccc2OC[C@@H]2O[C@@H](CC(=O)NCC(F)(F)F)CC[C@@H]21
  NALP1 inh: x; HDAC3 inhib: x; MC4R barr agon: x; MC4R antagonist: x; UUG fidelity: 6.0; ALR H2O2 inh: x

#13 Cc1ccc(S(=O)(=O)N[C@@H]2CC[C@@H](CCNS(=O)(=O)Cc3ccccc3)O[C@H]2CO)cc1
  NALP1 inh: x; HDAC3 inhib: x; MC4R barr agon: x; MC4R antagonist: x; UUG fidelity: -4.2; ALR H2O2 inh: x

#43 C/C(=N\NC(=O)c1ccccc1O)C1C(=O)c2ccccc2C1=O
  NALP1 inh: 16.1; HDAC3 inhib: 1.2; MC4R barr agon: -2.2; MC4R antagonist: 16.7; UUG fidelity: -9.6; ALR H2O2 inh: 97.7*

#27 C/C(=N\Nc1ccc([N+](=O)[O-])cc1)c1cccc(N)c1
  NALP1 inh: 9.1; HDAC3 inhib: x; MC4R barr agon: -3.0; MC4R antagonist: -2.8; UUG fidelity: -16.1; ALR H2O2 inh: 99.0*
